Here are results for four molecules from PubChem BioAssay (EPA / NIEHS).

Sequences of proteins named here, by UniProt entry; tags and fusion partners are left off.
UniProt P25445, whole entry, looked up: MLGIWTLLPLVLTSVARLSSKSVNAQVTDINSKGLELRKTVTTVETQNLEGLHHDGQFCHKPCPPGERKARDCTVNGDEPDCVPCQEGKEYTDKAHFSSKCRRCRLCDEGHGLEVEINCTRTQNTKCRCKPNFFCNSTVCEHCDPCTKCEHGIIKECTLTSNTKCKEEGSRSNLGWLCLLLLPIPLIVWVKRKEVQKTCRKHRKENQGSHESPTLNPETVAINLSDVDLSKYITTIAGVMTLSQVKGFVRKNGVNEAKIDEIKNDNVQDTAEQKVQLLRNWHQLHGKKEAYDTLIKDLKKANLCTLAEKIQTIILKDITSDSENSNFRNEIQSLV
UniProt P49327, whole entry, looked up: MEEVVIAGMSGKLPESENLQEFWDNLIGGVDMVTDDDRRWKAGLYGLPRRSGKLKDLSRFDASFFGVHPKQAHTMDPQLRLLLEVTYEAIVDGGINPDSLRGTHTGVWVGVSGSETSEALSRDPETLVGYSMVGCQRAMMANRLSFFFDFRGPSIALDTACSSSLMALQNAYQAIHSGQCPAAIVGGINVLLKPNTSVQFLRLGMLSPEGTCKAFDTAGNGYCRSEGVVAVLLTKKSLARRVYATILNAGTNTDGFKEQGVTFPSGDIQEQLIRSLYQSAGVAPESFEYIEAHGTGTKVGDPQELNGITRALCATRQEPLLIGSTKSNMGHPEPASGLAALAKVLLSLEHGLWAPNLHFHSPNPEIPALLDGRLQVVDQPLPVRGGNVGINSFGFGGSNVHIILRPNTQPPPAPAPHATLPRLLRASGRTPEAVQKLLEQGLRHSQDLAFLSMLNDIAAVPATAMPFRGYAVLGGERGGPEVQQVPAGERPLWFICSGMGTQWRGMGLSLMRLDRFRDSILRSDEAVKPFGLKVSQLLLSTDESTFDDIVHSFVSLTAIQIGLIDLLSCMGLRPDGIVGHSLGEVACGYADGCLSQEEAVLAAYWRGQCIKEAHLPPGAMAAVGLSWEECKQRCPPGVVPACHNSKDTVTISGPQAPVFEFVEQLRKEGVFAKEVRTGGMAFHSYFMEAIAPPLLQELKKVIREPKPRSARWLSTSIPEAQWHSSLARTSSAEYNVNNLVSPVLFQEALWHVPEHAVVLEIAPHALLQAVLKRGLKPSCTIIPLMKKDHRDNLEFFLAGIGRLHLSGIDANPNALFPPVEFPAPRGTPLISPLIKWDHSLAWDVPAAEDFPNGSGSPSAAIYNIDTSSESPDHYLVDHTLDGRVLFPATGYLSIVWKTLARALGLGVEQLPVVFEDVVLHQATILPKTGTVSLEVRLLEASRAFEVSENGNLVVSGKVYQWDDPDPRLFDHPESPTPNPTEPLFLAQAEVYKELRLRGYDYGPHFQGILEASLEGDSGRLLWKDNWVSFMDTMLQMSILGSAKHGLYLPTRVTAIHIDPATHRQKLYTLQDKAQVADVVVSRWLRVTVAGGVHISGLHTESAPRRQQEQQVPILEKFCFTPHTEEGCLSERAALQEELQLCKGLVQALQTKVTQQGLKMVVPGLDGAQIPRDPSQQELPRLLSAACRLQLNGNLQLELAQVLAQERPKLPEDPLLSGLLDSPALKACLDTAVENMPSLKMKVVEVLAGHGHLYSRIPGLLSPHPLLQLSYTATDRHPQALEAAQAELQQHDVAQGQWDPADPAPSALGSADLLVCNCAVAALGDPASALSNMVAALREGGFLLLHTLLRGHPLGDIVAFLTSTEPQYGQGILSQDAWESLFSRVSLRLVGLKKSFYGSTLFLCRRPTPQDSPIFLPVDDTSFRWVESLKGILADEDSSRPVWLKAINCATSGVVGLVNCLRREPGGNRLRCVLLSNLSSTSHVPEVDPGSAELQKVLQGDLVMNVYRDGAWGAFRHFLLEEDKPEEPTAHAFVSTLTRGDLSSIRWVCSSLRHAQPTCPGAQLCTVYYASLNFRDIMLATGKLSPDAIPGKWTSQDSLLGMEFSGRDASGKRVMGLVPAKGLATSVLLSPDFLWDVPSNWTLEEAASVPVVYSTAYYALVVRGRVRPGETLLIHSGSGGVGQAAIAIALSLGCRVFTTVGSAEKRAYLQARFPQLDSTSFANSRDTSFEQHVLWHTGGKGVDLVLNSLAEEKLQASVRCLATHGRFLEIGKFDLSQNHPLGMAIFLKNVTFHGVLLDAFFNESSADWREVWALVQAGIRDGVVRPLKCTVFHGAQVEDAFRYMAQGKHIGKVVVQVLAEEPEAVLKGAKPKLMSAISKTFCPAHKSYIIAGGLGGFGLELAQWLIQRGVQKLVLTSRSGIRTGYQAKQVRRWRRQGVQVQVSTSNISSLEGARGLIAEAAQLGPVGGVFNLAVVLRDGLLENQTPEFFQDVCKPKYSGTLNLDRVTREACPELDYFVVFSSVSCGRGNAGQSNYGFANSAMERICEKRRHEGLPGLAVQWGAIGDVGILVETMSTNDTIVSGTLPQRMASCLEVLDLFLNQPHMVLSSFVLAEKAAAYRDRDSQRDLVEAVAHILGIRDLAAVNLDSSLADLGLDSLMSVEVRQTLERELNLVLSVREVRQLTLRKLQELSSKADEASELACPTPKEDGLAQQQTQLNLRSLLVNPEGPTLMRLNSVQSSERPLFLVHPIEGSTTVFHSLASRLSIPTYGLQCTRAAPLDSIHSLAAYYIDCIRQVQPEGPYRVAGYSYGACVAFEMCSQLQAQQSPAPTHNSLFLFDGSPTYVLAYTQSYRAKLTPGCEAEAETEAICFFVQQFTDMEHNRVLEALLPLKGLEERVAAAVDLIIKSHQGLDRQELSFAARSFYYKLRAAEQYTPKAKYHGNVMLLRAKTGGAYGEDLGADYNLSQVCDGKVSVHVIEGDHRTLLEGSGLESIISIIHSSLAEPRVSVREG

The list shows a part of the results, in another mix than the full data. The source made the active and inactive calls. The calls were made as follows: active = hit-call score of the fitted dose curve at least 0.9, where 1 is the maximum; inactive = score below 0.9.

Read-out in assay [1]: Tumor necrosis factor receptor superfamily member 6 (Homo sapiens) (UniProt P25445)
As to the kind of experiment: LTEA_HepaRG_FAS: Life Technologies and Expression Analysis (LTEA) Assay for Fas cell surface death receptor (FAS) using HepaRG (AID 2283447). The following applies: actives raise or lower the signal; mRNA level, 48 h. Put shortly: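 Differentiated human HepaRG cells, pre-cultured 48 h, were exposed in duplicate for 48 h to 8-point half-log concentrations (top 100 uM, 0.5% DMSO) in serum-free induction medium; FAS mRNA measured by qRT-PCR, normalized to ACTB/GAPDH/POLR2A, bidirectional fit versus DMSO.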

Read-out in assay [2]: Fatty acid synthase (Homo sapiens) (UniProt P49327)
As to the kind of experiment: LTEA_HepaRG_FASN: Life Technologies and Expression Analysis (LTEA) Assay for Fatty Acid Synthase (FASN) using HepaRG (AID 2283448). The note with it: actives raise or lower the signal; mRNA level, 48 h. Here is the method:
(§1) LTEA_HepaRG is a cell based, multiplexed-readout assay that uses HepaRG, a human liver cell line, with measurements taken at 48 hours after chemical dosing on a 96-well plate.LTEA_HepaRG_FASN is one of 102 assay component(s) measured in the LTEA HepaRG cell culture assay. It is a marker of Steatosis.Data from the assay component LTEA_HepaRG_FASN was analyzed into 1 endpoint. This assay endpoint, LTEA_HepaRG_FASN, was analyzed with bidirectional fitting relative to DMSO as the negative control and baseline of activity. Using a type of inducible reporter, measures of mRNA induction for gain or loss-of-signal activity can be used to understand regulation of transcription factor activity. To generalize the intended target to other relatable targets, this assay endpoint is annotated to the lyase intended target family, where the subfamily is fatty acid synthase.
(§2) A total of 1060 chemcials from the ToxCast library were tested in eight-point concentration-response experiments. Cell culture and cytotoxicity assays were conducted at Thermo Fisher Scientific's Custom Services facility (Madison, WI). A single lot of human HepaRG cells (Thermo Fisher Scientific, Frederick, MD) was used for the cell culture experiments. 96-well format collagen type I coated plates of human HepaRG cells were prepared using established methods. Briefly, cryopreserved HepaRG cells were thawed, plated at a density of approximately 100,000 cells/well in HepaRG Thaw, Plate, and General Purpose media (HPRG770, Thermo Fisher Scientific), and incubated for 48 hours. 0.5% DMSO was selected as vehicle control to balance the requisite need of DMSO in HepaRG cultures to maintain differentiation (for example, baseline metabolism, proportions of hepatocytes vs. cholangiocytes), while enabling further hepatic receptor pathway activation (for example, PXR and CAR) in response to chemical exposure. 48 hours after plating, the culture medium was replaced with HepaRG Serum-Free Incudtion Media. Cells were exposed to each test chemical in duplicate and maintained in CO2 incubators for another 48 hours. Chemical plates were thawed to room temperature and 200x concentrations of treatment groups were prepared. 8-point conentration-reponse curves were made with the highest exposure at 100 uM, followed by half-log dilutions, all in 0.5% DMSO. Each test plate contained variouse controls, induction positive controls (1mM phenobarbital), cytotoxicity positive controls (100 mM aflatoxin B1), vehicle controls (0.5% DMSO), and total lysis controls (0.5% DMSO). […] Fluidigm's 96.96 Dynamic ArrayTM (Fluidigm, Amsterdam, the Netherlands) technology was used for gene expression analyses by quantitative reverse transcription polymerase chain reaction (qRT-PCR, performed by Quintiles/Expression Analysis, Durham, NC)89. […]

Read-out in assay [3]: Cyclin D2 (CCND2), CCND2 (gene 894)
As to the kind of experiment: LTEA_HepaRG_CCND2: Life Technologies and Expression Analysis (LTEA) Assay for Cyclin D2 (CCND2) using HepaRG (AID 2283449).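 Also: CCND2 transcript measured by TaqMan qRT-PCR and normalised to three housekeeping genes.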 The note with it: actives raise or lower the signal; mRNA level, 48 h. The gist of the method: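 In this HepaRG study, an eight-point concentration series (max 100 uM, 0.5% DMSO) is applied for 48 h. CCND2 mRNA change is derived by qRT-PCR normalised to ACTB, GAPDH and POLR2A.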

Read-out in assay [4]: Cyclin Dependent Kinase Inhibitor 1A (CDKN1A), CDKN1A (gene 1026)
Nature of the assay: LTEA_HepaRG_CDKN1A: Life Technologies and Expression Analysis (LTEA) Assay for Cyclin Dependent Kinase Inhibitor 1A (CDKN1A) using HepaRG (AID 2283450). The following applies: actives raise or lower the signal; mRNA level, 48 h. The gist of the method:
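Cryopreserved HepaRG cells were plated and cultured 48 h, then switched to serum-free induction medium. Chemicals (eight half-log concentrations, top 100 uM, 0.5% DMSO) were applied for 48 h. Lysates underwent qRT-PCR for CDKN1A with housekeeping normalization.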

Read-out in assay [5]: Cyclin D1 (CCND1), CCND1 (gene 595)
As to the kind of experiment: LTEA_HepaRG_CCND1: Life Technologies and Expression Analysis (LTEA) Assay for Cyclin D1 (CCND1) using HepaRG (AID 2283451).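 As to AC50: TaqMan qRT-PCR transcript level normalised to ACTB GAPDH and POLR2A housekeeping genes.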 The following applies: actives raise or lower the signal; mRNA level, 48 h. On the procedure: as §1, with “plate.LTEA_HepaRG_CCND1” for “plate.LTEA_HepaRG_FASN”, “Cell proliferation, survival, death.Data” for “Steatosis.Data”, “LTEA_HepaRG_CCND1” for “LTEA_HepaRG_FASN”, “LTEA_HepaRG_CCND1,” for “LTEA_HepaRG_FASN,”, “cell cycle” for “lyase”, “Cell proliferation, survival, death.” for “fatty acid synthase.”
as §2, with “DMSO.” for “DMSO. Each test plate contained variouse controls, induction positive controls (1mM phenobarbital), cytotoxicity positive controls (100 mM aflatoxin B1), vehicle controls (0.5% DMSO), and total lysis controls (0.5% DMSO).”

Assay [6] is described as follows: CEETOX_H295R_ANDR: CeeTox H295R High-throughput Steroidogenesis Assay for Androstenedione (ANDR) (AID 2283436).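 Also: human H295R adrenal cells exposed for 48 h with androstenedione measured in medium.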 The following applies: actives raise or lower the signal. The gist of the method:
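Steroidogenesis in H295R adrenal cells after 48 h dosing; androstenedione quantified by LC-MS/MS, with DMSO as negative control and baseline for bidirectional curve fitting.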

A short description of assay [7]: CEETOX_H295R_CORTIC: CeeTox H295R High-throughput Steroidogenesis Assay for Corticosterone (CORTIC) (AID 2283437).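 Also: corticosterone secreted into medium quantified by mass spectrometry.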 The note with it: actives raise or lower the signal. Put shortly: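 Steps: seed H295R, adhere overnight; 10 uM forskolin 48 h; replace with chemical (0.1% DMSO) 48 h; extract medium with MTBE; quantify corticosterone by HPLC-MS/MS; score bidirectionally vs DMSO.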

Assay [8] in a line: CEETOX_H295R_CORTISOL: CeeTox H295R High-throughput Steroidogenesis Assay for Cortisol (AID 2283438).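 Also: cortisol secreted into medium quantified by LC-MS/MS.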 The following applies: actives raise or lower the signal. The gist of the method:
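Read-out: cortisol in culture medium by reverse-phase C18 HPLC with ESI-positive tandem MS, after MTBE liquid-liquid extraction. Cells: human adrenal H295R, forskolin-primed (10 uM, 48 h) before 48 h chemical exposure in 0.1% DMSO.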

Assay [9] can be described thus: CEETOX_H295R_DOC: CeeTox H295R High-throughput Steroidogenesis Assay for DOC (AID 2283439). The note with it: actives raise or lower the signal. The gist of the method:
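Human adrenocortical H295R cells, passages up to 10, received 10 uM forskolin for 48 h before chemical addition. After another 48 h exposure in 0.1% DMSO, secreted DOC was measured by LC-MS/MS, with gain or loss fitted against DMSO controls.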

A short description of assay [10]: CEETOX_H295R_PROG: CeeTox H295R High-throughput Steroidogenesis Assay for Progesterone (PROG) (AID 2283442). The following applies: actives raise or lower the signal. On the procedure: CEETOX_H295R is a cell-based, multiplexed-readout assay that uses H295R, a human adrenal gland cell line, with measurements taken at 48 hours after chemical dosing in a 96-well plate.CEETOX_H295R_PROG is one of 23 assay component(s) measured or calculated from the CEETOX_H295R assay. It is designed to make measurements of hormone induction, a form of inducible reporter, as detected with absorbance signals by HPLC-MS-MS technology.Data from the assay component CEETOX_H295R_PROG was analyzed into 1 assay endpoint. This assay endpoint, CEETOX_H295R_PROG, was analyzed with bidirectional fitting relative to DMSO as the negative control and baseline of activity. […]
Cell culture and media preparation procedures were conducted in accordance with OECD Test No. 456 guidelines, with minor modifications. […] For steroid quantification, media samples were shipped to OpAns, LLC (Durham, NC) on dry ice, and samples were thawed to room temperature prior to liquid-liquid extraction. […] Steroid hormones were separated by HPLC, eluted using a reverse phase C18 gradient with electrospray positive ionization, followed by quantification by tandem mass spectrometry (MS/MS). Data were acquired on a MassHunter Workstation Acquisition version B03.01 (Agilent Technologies, Inc.) and processed using MassHunter Quantitative Analysis for QQQ. […] Absorbance was read at 570 and 650nm using a Packard Fusion microplate reader. […]

Turning to `CC(C)OP(=S)(OC(C)C)SCCNS(=O)(=O)c1ccccc1`, the AC50 (as a rule, the concentration at which the activity in the assay is half-maximal) in [1] is active: 85.9 µM; in [2], active: 90 µM; in [5], active: 91.6 µM. For the same molecule, the outcome in assay [3] and in assay [4] was inactive.

As to `Cc1cc([N+](=O)[O-])cc([N+](=O)[O-])c1O`, the figures for the half-maximal activity concentration (AC50) in [1], in [2] and in assay [4] were active: 76.2 µM, active: 8.09 µM and active: 88.4 µM, respectively. The call in [3] and in assay [5] was inactive.

With `O=C1C2CC=CCC2C(=O)N1SC(Cl)(Cl)C(Cl)Cl` (centres undefined), the molecule was called inactive in assay [6], in assay [7], in assay [8], in assay [9], in assay [10] and in assay [2]. For the same molecule, the result in assay [4] and in assay [5] was inactive. For the same molecule, the AC50 in [1] was active: 0.187 µM.

For the molecule `CN(C(=O)Cc1cccc2occc12)[C@H]1CC[C@@]2(CCCO2)C[C@@H]1N1CCCC1`, the molecule was classed as inactive in [1], in assay [2], in assay [3], in assay [4] and in assay [5].
